Data: patent publication US20230093399A1, “METHODS FOR GENERATING PLURIPOTENT STEM CELL-DERIVED BROWN FAT CELLS” (AgeX Therapeutics, Inc., priority 2013, published 2023)

Key:
[1] = system: Bone marrow-derived mesenchymal stem cells (MSCs); test: Differentiation of bone marrow-derived MSCs in HyStem-C beads, FABP4 expression; format: cell-based; settings: 14 days, 50 ng/mL BMP2, or 10 ng/mL BMP4, or 100 ng/mL BMP7
Method: The cell lines E72, E75, and E163, or cells with a similar pattern of gene expression, are capable of differentiating into C19orf80-expressing adipocytes when exposed to adipogenic differentiation conditions such as differentiation in HyStem-C (BioTime, Inc. Alameda, Calif.) as described with chondrogenic medium supplemented with 10 ng/mL BMP4 for 14-21 days, but without TGFβ3. […] Similarly, the lines E72, E75, E163, as well as clonal hES-derived embryonic progenitors corresponding to other anatomic locations, also differentiated into FABP4-expressing cells. However, only MSCs, E72, E75, and E163 cells induced C19orf80/betatrophin expression upon differentiation.
HyStem-C (BioTime, Inc. Alameda, Calif.) is a matrix composed of thiol-modified gelatin and thiolated hyaluronan crosslinked in vivo or in vitro with (polyethylene glycol diacrylate (PEGDA). We observed that clonal human embryonic progenitor cell lines such as those described in the present invention, could be efficiently differentiated in high-density cultures of said crosslinked collagen and hyaluronate in the following manner. HyStem-C® (BioTime, CA, USA) is reconstituted following the manufacturer's instructions. Briefly, the HyStem component (10 mg of thiol-modified hyaluronan) is dissolved in 1.0 ml of degassed deionized water for approximately 20 min to prepare a 1% w/v solution. […]

cell line E72 = test: Differentiation of cell line E72 in HyStem, gene expression; format: cell-based, human; settings: E72 passage 11; 21 days in HyStem with 10 ng/mL TGFβ3 together with BMP4 (10 ng/mL) or BMP2 (50 ng/mL)
Method: (§1) HyStem-C (BioTime, Inc. Alameda, Calif.) (BioTime, Alameda, Calif., USA) was reconstituted following the manufacturer's instructions. Briefly, the HyStem component (thiol modified hyaluronan, 10 mg) was dissolved in 1.0 ml degassed deionized water for about 20 minutes to prepare a 1% w/v solution. The Gelin-S component (thiol modified gelatin, 10 mg) was dissolved in 1 ml degassed deionized water to prepare a 1% w/v solution, and PEGDA (PEG diacrylate, 10 mg) was dissolved in 0.5 ml degassed deionized water to prepare a 2% w/v solution. HyStem (1 ml, 1% w/v) was mixed with Gelin-S (1 ml, 1% w/v) immediately before use. Pelleted cells were resuspended in recently prepared HyStem:Gelin-S (1:1 v/v) mix described above. Upon the addition of crosslinker PEGDA, the cell suspension, at a final concentration of 2.0×10^7 cells/ml, was aliquoted at 25 μl aliquot four to five times into each well of 6 well plates (Corning 3516) after partial gelation to form attached beads. Following complete gelation (20 minutes), chondrogenic medium was added to each well (i.e about 4 ml/each well of a 6 well plate). […]

cell line E75 = test: Differentiation of cell line E75 in HyStem, gene expression; format: cell-based, human; settings: E75 passage 11; 21 days in HyStem with 10 ng/mL TGFβ3 together with BMP4 (10 ng/mL) or BMP2 (50 ng/mL)
Method: as §1

B1: BMP2: Bone Morphogenetic Protein 2, TGF-beta superfamily member (protein, UniProt P12643 283-396, looked up)
Bone morphogenetic protein 2: QAKHKQRKRLKSSCKRHPLYVDFSDVGWNDWIVAPPGYHAFYCHGECPFPLADHLNSTNHAIVQTLVNSVNSKIPKACCVPTELSAISMLYLDENEKVVLKNYQDMVVEGCGCR
B1 was tested, and the “differentiation into adipocytes as evidenced by expression of FABP4” value [1] was “caused the differentiation of the cells into adipocytes”, the “markers of endochondral ossification including COL2A1, ALPL, IBSP, and osteopontin (SPP1)” value (cell line E72) was “relatively high levels” and the “markers of endochondral ossification including COL2A1, ALPL, IBSP, and osteopontin (SPP1)” value (cell line E75) was “relatively high levels”.
